The test has as its target Sodium-dependent dopamine transporter (Rattus norvegicus, UniProt P23977). Nature of the test: Displacement of [3H]WIN-35428 from dopamine transporter in rat caudate putamen tissue. It counts as tissue-based. A digest of the protocol:
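Compounds were tested as oxalate salts unless noted; some were hydrochloride or fumarate. Values are mean ± SEM of three experiments, each run in triplicate.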
(In general: Displacement assays read how much labelled ligand stays bound in the presence of the test substance.)

Protein sequences, listed by entry. Tags and fused reporters are not part of them.
UniProt P23977, whole entry: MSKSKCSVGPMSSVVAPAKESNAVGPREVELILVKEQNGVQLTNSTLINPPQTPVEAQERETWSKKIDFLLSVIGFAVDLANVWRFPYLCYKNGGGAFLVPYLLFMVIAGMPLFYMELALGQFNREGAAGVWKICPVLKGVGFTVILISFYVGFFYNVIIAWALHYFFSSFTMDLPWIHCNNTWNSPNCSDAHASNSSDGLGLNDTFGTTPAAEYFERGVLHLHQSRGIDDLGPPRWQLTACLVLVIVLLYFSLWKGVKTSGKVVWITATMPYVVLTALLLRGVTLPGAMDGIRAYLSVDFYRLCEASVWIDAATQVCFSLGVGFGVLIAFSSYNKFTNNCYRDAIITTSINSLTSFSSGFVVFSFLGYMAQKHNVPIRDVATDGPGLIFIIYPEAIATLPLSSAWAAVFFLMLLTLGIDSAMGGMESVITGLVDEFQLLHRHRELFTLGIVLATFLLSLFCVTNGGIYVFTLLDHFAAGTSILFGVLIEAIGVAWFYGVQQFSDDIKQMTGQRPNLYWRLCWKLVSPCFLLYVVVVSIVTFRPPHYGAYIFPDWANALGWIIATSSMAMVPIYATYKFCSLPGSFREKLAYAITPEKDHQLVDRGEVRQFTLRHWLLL

pKi: −log10 of the molar value.

One may read the pKi as −log10 of the Ki, conventionally taken in molar units.

In turn, `COC(=O)C[C@@H]1C2C[C@H](Cc3ccccc3)C(C[C@@H]1Cc1ccccc1)N2C` (stereo partly specified) gave a negative logarithm of the Ki (pKi) of 5.81.

For the origin of these results see ChEMBL document CHEMBL1130279 (J Med Chem, 1997).
